Laboratory results: US4863905A, “Renin inhibitors II” (Warner-Lambert Company, priority 1987, dated 1989)
Read-outs that look alike come from different tables or passages of the source. Each block holds one compound with its values, some of them ahead of it.

Amino acid sequences for entries named in this document (tags omitted). Residues count along the entry.
UniProt P00797, 67-406 limits assumed: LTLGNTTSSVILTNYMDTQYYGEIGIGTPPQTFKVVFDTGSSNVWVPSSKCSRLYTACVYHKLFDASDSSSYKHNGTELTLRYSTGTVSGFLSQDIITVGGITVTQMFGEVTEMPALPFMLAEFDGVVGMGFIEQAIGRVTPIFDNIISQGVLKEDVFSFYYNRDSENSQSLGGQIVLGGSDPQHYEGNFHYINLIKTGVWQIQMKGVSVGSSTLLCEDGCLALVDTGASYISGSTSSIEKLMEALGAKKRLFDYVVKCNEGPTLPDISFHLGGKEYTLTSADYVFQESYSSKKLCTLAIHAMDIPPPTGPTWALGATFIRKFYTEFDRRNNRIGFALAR

Target: renin (Homo sapiens, UniProt P00797)
Test: in vitro renin inhibitory activity, radioimmunoassay for angiotensin I
Settings: read-out: Activity IC50, renin incubated two hours at 37° with substrate angiotensinogen, angiotensin I by radioimmunoassay, molar concentration causing 50% inhibition
Procedure: The effectiveness of the aforementioned compound is determined by a test for in vitro renin inhibitory activity. This activity is determined by a standard radioimmunoassay for angiotensin I. In this assay the enzyme, renin, incubated for two hours at 37° in the presence of a substrate, angiotensinogen, generates the product, angiotensin I. Test compounds are added to the incubation mixture. Relative activity is reported as the IC50, which is the molar concentration of test compound causing a 50% inhibition of the renin activity.

IC50 (tested form: 0.6 CH2Cl2 solvate): 12 µM
SMILES: NCc1cccc(CNC(=O)CCC(O)[C@H](CC2CCCCC2)NC(=O)[C@H](Cc2c[nH]cn2)NC(=O)C(Cc2cccc3ccccc23)Cc2cccc3ccccc23)c1 (stereo partly drawn)

IC50 (tested form: 0.5 CH2Cl2 solvate): 4.6 µM
SMILES: CC(C)CC(CC(O)[C@H](CC1CCCCC1)NC(=O)[C@H](Cc1c[nH]cn1)NC(=O)C(Cc1cccc2ccccc12)Cc1cccc2ccccc12)C(=O)NCc1cccc(CN)c1 (stereo partly drawn)

IC50 (tested form: 0.3 CH2Cl2 solvate): 0.57 µM
SMILES: CC(C)C[C@H](NC(=O)C[C@H](O)[C@H](CC(C)C)NC(=O)[C@H](Cc1c[nH]cn1)NC(=O)C(Cc1cccc2ccccc12)Cc1cccc2ccccc12)C1CC(Cc2ccccc2)C(=O)O1 (stereo partly drawn)
